Earlier results as cited in patent publication US20120142623A1, “Compositions And Methods For Predicting Inhibitors Of Protein Targets” (priority 2006, published 2012).

Biological target: Integrase (Human immunodeficiency virus type 1 group M subtype B, UniProt P04585)
Details: HIV-1 target Integrase; read-out: Inhibitory effect (uM), IC50, Integrase; cited from earlier work

SMILES: COc1cc(/C=C/C(=O)CC(=O)/C=C/c2ccc(O)c(OC)c2)ccc1O [Curcumin]
- IC50: 30 µM
